According to patent US6921667B2, “Methods for direct detection of individual methotrexate metabolites” (Prometheus Laboratories, Inc., priority 2003, dated 2005):

Experiment: Red blood cell methotrexate polyglutamate concentrations in patients on low-dose methotrexate, by HPLC fluorometry with post-column photo-oxidation
Assay type: in vivo, human
Details: single patient on 17.5 mg weekly methotrexate for at least 3 months; FIG. 4A; packed red blood cells

concentration in red blood cell sample	Substance
undetected	4-amino-10-methylpteroylhexa-glutamic acid [MTXPG6]
0.064 µM	4-amino-10-methylpteroyltri-glutamic acid [MTXPG3]
